Reference: patent US8530490B2, “Uracil compound or salt thereof having human deoxyuridine triphosphatase inhibitory activity” (Taiho Pharmaceutical Co., Ltd., priority 2008, dated 2013)

By UniProt entry, the sequences of proteins in these tests, tags left out. Residues count along the entry.
UniProt P33316, 94-252: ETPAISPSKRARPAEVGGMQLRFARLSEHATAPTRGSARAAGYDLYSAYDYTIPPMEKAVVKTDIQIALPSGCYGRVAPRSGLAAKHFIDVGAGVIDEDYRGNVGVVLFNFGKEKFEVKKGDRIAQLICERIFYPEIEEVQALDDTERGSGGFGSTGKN

Target: human dUTPase (Homo sapiens (Human), UniProt P33316)
Experiment: Human dUTPase inhibitory effect: production of [5-3H]dUMP from [5-3H]dUTP, measured by HPLC with flow scintillation
Assay type: biochemical
Conditions: [5-3H]dUMP production from [5-3H]dUTP, 37° C., 15 minutes
Experimental: The inhibitory activity of the compound of the present invention against human dUTPase was determined by measuring the production of [5-^3H]deoxyuridine monophosphate (hereinafter, referred to as [5-^3H]dUMP) from [5-^3H]deoxyuridine triphosphate (hereinafter, referred to as [5-^3H]dUTP) according to a method shown below.
Specifically, 0.2 mL in total of a solution containing 0.02 mL of 1 μM dUTP (including 588 Bq/mL [5-3H]dUTP), 0.05 mL of a 0.2 M Tris buffer solution (pH 7.4), 0.05 mL of 16 mM magnesium chloride, 0.02 mL of 20 mM 2-mercaptoethanol, 0.02 mL of a 1% aqueous solution of fetal bovine serum-derived albumin, 0.02 mL of varying concentrations of test compound solutions or pure water as a control, and 0.02 mL of a solution of human dUTPase (expressed using E. coli and purified) was reacted at 37° C. for 15 minutes. Immediately after the reaction, the solution was heated at 100° C. for 1 minute to terminate the reaction, followed by centrifugation at 15000 rpm for 2 minutes. An aliquot (150 μL) of the supernatant thus obtained by centrifugation was analyzed using an Atlantis dC18 column (manufactured by Waters Corp., 4.6×250 mm) and a high-performance liquid chromatograph (manufactured by Shimadzu Corp., Prominence). […]
The inhibitory activity of the test compound was determined according to the formula shown below.

Structure (SMILES): O=c1ccn(COCCCS(=O)(=O)NCc2cccc(OC(CF)CF)c2)c(=O)[nH]1 [Example 50, N-(3-(1,3-difluoropropan-2-yloxy)benzyl)-3-((2,4-dioxo-3,4-dihydropyrimidin-1(2H)-yl)methoxy)propane-1-sulfonamide]
- IC50: 2.03 µM
